Data taken from US10456443B2, “Peptidyl calcineurin inhibitors” (OHIO STATE INNOVATION FOUNDATION, priority 2014, dated 2019).

Experiments:
[1] = 25% human serum, 37 °C
docking site on CN = docking site on CN (Homo sapiens, UniProt Q08209); conditions: versus PxIxIT motif; cited from earlier work
[2] = system: NFATc3 translocation in macrophages; test: LPS induced NFATc3 nuclear translocation in macrophages; format: cell-based; conditions: CP9-ZIZIT at 1 μM
[3] = system: HeLa cells stably transfected with GFP-NFAT; test: GFP-NFAT translocation assay, live-cell confocal microscopy; conditions: 500 nM peptide, 2 h preincubation, 10 min ionomycin stimulation
[4] = B6 and C3H/HeN mouse strains; cited from earlier work
[5] = treated mice compared to controls; cited from earlier work
[6] = diabetic db/db mice; cited from earlier work
[7] = mice; cited from earlier work

## CC[C@H](C)[C@H](NC(=O)[C@@H](NC(=O)[C@@H]1CCCN1C(=O)[C@H](Cc1c[nH]cn1)NC(=O)[C@@H]1CCCN1C(=O)CN)C(C)C)C(=O)N[C@H](C(=O)N[C@H](C(=O)N[C@H](C(=O)NCC(=O)N1CCC[C@H]1C(=O)N[C@@H](Cc1c[nH]cn1)C(=O)N[C@@H](CCC(=O)O)C(=O)N[C@@H](CCC(=O)O)C(N)=O)[C@@H](C)O)[C@@H](C)CC)C(C)C [VIVIT]
[1]
  time to complete degradation in serum: 6 h
[1]; 50 μM peptide
  half-life of degradation in serum: ~1 h
Docking site on CN
  fold higher affinity for CN docking site than the naturally occurring PxIxIT motif: 25 fold

## Ac-RRRRRRRRRRRC-SPDP-GPHPVIVITGPHEE-NH2 [Peptide R11-VIVIT]
[2]
  LPS induced NFATc3 nuclear translocation: inhibited
[3]
  inhibition of the nuclear translocation of GFP-NFAT: ~65%
[4]
  effect on immunosuppression during islet allografts: improve immunosuppression
[5]
  effect on microgliosis and Aβ plaque load: attenuate both microgliosis and Amyloid β peptide (Aβ) plaque load
[6]
  effect on albuminuria, mesangial matrix expansion and podocyte injury: markedly attenuates albuminuria
[7]
  effect on experimental colitis: protect against experimental colitis
